{
  "sequences": {"note": "Sequences of proteins named here, by UniProt entry; tags and fusion partners are left off. Residues count along the entry.", "UniProt Q9NZJ5, 30-1116": "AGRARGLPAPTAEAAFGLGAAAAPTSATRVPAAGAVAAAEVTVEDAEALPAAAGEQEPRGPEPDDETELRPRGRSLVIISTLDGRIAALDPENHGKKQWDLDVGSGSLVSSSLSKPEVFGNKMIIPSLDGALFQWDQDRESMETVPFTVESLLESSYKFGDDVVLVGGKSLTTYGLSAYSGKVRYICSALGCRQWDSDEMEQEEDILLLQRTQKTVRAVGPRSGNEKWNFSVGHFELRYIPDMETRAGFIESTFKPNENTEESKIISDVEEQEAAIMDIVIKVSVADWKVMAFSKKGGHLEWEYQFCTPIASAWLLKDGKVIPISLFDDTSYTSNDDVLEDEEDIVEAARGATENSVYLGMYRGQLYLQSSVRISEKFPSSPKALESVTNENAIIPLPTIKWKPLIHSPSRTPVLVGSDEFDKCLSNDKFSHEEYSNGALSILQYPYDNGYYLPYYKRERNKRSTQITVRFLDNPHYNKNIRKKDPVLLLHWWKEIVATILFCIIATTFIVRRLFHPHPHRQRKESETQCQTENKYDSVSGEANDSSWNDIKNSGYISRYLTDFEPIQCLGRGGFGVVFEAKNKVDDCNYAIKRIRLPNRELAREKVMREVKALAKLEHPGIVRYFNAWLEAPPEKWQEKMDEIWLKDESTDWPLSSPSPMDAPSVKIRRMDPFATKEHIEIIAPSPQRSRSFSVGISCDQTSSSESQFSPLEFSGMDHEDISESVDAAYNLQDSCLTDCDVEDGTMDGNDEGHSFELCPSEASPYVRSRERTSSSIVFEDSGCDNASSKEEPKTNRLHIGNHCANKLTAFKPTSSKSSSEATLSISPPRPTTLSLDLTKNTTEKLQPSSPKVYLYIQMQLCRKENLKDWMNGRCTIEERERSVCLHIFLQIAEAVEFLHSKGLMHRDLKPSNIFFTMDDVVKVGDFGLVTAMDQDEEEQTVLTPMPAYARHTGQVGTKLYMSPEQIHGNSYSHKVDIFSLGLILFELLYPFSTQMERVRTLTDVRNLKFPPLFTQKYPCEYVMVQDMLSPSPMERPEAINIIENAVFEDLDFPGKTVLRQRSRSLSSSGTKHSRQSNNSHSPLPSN"},
  "source": "paper PMC9569420",
  "about": "(Communications Biology, 2022)",
  "biological_target": "T1, EIF2AK3 (Homo sapiens, UniProt Q9NZJ5)",
  "T1 construct": "purchased Reaction Biology Corporation",
  "experiment": "HotSpot kinase assay",
  "format": "biochemical",
  "settings": "read-out: IC50 (M) of Control Compound",
  "data": [
    {"compound": "Cn1cc(-c2ccc3c(c2)CCN3C(=O)Cc2cccc(C(F)(F)F)c2)c2c(N)ncnc21", "note": "[GSK-2606414, reference compound]", "values": [
      {"measurement": "IC50", "result": "2.76e-09", "unit": "M"}
    ]}
  ]
}
